Patent US7312322B1, “Genetic sequences encoding steroid and juvenile hormone receptor polypeptides and insecticidal modalities therefor” (priority 1998, dated 2007)

Biological target: T1, linker and ligand-binding regions of the L. cuprina EcR polypeptide and partner protein (USP polypeptide) (Lucilia cuprina, UniProt O18531)
T1 construct: made in house; host or cells: recombinant baculovirus in insect Sf9 and Sf21 cells (extracts)
T1 sequence (O18531 366-757): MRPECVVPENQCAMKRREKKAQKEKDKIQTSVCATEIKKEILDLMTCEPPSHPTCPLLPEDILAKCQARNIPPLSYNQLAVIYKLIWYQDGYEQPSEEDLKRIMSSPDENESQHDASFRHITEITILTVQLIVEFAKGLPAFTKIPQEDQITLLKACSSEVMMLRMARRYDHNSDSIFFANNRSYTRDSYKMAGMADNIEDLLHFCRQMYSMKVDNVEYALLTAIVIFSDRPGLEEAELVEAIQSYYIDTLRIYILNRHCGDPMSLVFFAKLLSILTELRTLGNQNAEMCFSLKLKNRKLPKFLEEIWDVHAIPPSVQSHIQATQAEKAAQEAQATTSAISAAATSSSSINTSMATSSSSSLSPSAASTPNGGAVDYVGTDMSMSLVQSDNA
Experiment: [3H]ponasterone A binding assay in Sf9 and Sf21 cells infected by recombinant baculovirus (modified method of Yund et al)
Settings: compared to the ecdysone holoreceptor in L. cuprina embryos; no specific binding with control virus (FIG. 3)

[^3H]ponasterone A
binding of labelled ligand in cells infected by the recombinant baculovirus: significant increase in the binding
